Results on 10 molecules are retold here after patent US8334304B2, “Aminosulfonyl substituted 4-(aminomethyl)-piperidine benzamides as 5HT4-antagonists” (Janssen Pharmaceutica N.V., priority 2003, dated 2012).

Chains of the proteins cited; added tags and fusions are not shown.
UniProt Q13639, whole entry: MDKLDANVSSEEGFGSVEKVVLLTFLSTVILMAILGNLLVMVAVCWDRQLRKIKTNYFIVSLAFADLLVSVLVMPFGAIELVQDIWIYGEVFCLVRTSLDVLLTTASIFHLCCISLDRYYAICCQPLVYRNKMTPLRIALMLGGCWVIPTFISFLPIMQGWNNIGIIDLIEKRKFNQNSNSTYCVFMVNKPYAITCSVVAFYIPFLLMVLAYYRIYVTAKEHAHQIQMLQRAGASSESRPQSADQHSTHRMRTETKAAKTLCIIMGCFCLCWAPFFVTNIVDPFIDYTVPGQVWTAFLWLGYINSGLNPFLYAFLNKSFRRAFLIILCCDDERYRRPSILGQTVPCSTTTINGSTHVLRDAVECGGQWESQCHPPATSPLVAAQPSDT

One data set concerns the target h5-HT4b (Homo sapiens, UniProt Q13639). In words: 5HT4 antagonism: [3H]GR113808 binding to membranes of h5-HT4b-HEK 293 clone 9 cells. Conditions: displacement of 0.1 nM [3H]GR113808, membranes of h5-HT4b-HEK 293 cells, 30 min at 25° C.
Data set [1] is described as follows: Metabolic stability: incubation with liver microsomes and NADPH-generating system, LC-MS. Conditions: compound 5 μM, microsomes 1 mg/ml, 37 degrees Celsius. The protocol:
Sub-cellular tissue preparations were made according to Gorrod et al. (Xenobiotica 5: 453-462, 1975) by centrifugal separation after mechanical homogenization of tissue. Liver tissue was rinsed in ice-cold 0.1 M Tris-HCl (pH 7.4) buffer to wash excess blood. Tissue was then blotted dry, weighed and chopped coarsely using surgical scissors. The tissue pieces were homogenized in 3 volumes of ice-cold 0.1 M phosphate buffer (pH 7.4).
Tissue homogenates were centrifuged at 9000×g for 20 minutes at 4° C. The resulting supernatant was stored at −80° C. and is designated ‘S9’.
The S9 fraction can be further centrifuged at 100.000×g for 60 minutes (4° C.). The resulting supernatant was carefully aspirated, aliquoted and designated ‘cytosol’. The pellet was re-suspended in 0.1 M phosphate buffer (pH 7.4) in a final volume of 1 ml per 0.5 g original tissue weight and designated ‘microsomes’.
All sub-cellular fractions were aliquoted, immediately frozen in liquid nitrogen and stored at −80° C. until use.
For the samples to be tested, the incubation mixture contained PBS (0.1M), compound (5 μM), microsomes (1 mg/ml) and a NADPH-generating system (0.8 mM glucose-6-phosphate, 0.8 mM magnesium chloride and 0.8 Units of glucose-6-phosphate dehydrogenase). Control samples contained the same material but the microsomes were replaced by heat inactivated (10 minutes at 95 degrees Celsius) microsomes. Recovery of the compounds in the control samples was always 100%.
The mixtures were preincubated for 5 minutes at 37 degrees Celsius. The reaction was started at time point zero (t=0) by addition of 0.8 mM NADP and the samples were incubated for 60 minutes (t=60). The reaction was terminated by the addition of 2 volumes of DMSO. Then the samples were centrifuged for 10 minutes at 900×g and the supernatants were stored at room temperature for no longer as 24 hours before analysis. All incubations were performed in duplo. Analysis of the supernatants was performed with LC-MS analysis. Elution of the samples was performed on a Xterra MS C18 (50×4.6 mm, 5 μm, Waters, US). An Alliance 2790 (Supplier: Waters, US) HPLC system was used. Elution was with buffer A (25 mM ammoniumacetate (pH 5.2) in H2O/acetonitrile (95/5)), solvent B being acetonitrile and solvent C methanol at a flow rate of 2.4 ml/min. The gradient employed was increasing the organic phase concentration from 0% over 50% B and 50% C in 5 min up to 100% B in 1 minute in a linear fashion and organic phase concentration was kept stationary for an additional 1.5 minutes. Total injection volume of the samples was 25 μl. […]
Metabolic stability was expressed as % metabolism of the compound after 60 minutes (equation given as example) of incubation in the presence of active microsomes (E(act))
Background: Liver microsomes are a subcellular fraction often used to study metabolism.

Take `Nc1cc(C(=O)NC[C@@H]2CCN(CCCS(N)(=O)=O)C[C@H]2O)c2c(c1Cl)OCCCO2` (relative stereo): on h5-HT4b, the pIC50 – broadly, the negative decadic logarithm of the IC50, by convention in mol/L – stood at 7.61.
`Nc1cc(C(=O)NC[C@@H]2CCN(CCCS(N)(=O)=O)C[C@H]2O)c2c(c1Cl)OCCO2` (relative stereo): the pIC50 on h5-HT4b (tested form: hydrate (1:1)) came out at 7.92.
Consider `Cc1cc2c(c(C(=O)NC[C@@H]3CCN(CCCC(=O)NS(C)(=O)=O)C[C@H]3O)c1)OCCCO2`, for which the negative-log IC50 (pIC50) on h5-HT4b (tested form: hydrate (1:1)) is listed as 7.51. The “% metabolised compound after 60 minutes” value in data set [1] (tested form: hydrate (1:1)) is 6%.
On to `CNc1cc2c(c(C(=O)NC[C@@H]3CCN(CCCS(N)(=O)=O)C[C@H]3O)c1)OCCO2` (relative stereo), for which the negative logarithm of the IC50 (pIC50) at h5-HT4b (tested form: HCl (2:3) hydrate (1:2) 2-propanolate (2)) was 7.66.
With `COc1ccc(C(=O)NC[C@@H]2CCN(CCCCS(N)(=O)=O)C[C@H]2O)c2c1OCCO2`, the pIC50 at h5-HT4b came to 8.83. In data set [1], the “% metabolised compound after 60 minutes” value is recorded as 11%.
In the case of `Cc1cc2c(c(C(=O)NC[C@@H]3CCN(CCCCS(N)(=O)=O)C[C@H]3O)c1)OCCO2`, at h5-HT4b, the pIC50 is on record as 9.13. The “% metabolised compound after 60 minutes” value in data set [1] was 13%.
Take `CNc1cc2c(c(C(=O)NC[C@@H]3CCN(CCCS(N)(=O)=O)C[C@H]3O)c1)OCCCO2` (relative stereo): on h5-HT4b (tested form: E-2-butenedioate (2:1) hydrate (1:1) eth), the pIC50 is given as 6.56.
Molecule `Nc1cc2c(c(C(=O)NC[C@@H]3CCN(CCCS(N)(=O)=O)C[C@H]3O)c1)OCCO2` (relative stereo) showed a negative logarithm of the IC50 (pIC50) on h5-HT4b (tested form: hydrate (1:1)) of 8.02.
`Cc1cc2c(c(C(=O)NC[C@@H]3CCN(CCCS(=O)(=O)NS(C)(=O)=O)C[C@H]3O)c1)OCCCO2` displayed a pIC50 at h5-HT4b of 7.8.
Turning to `Cc1ccc(C(=O)NC[C@@H]2CCN(CCCCS(N)(=O)=O)C[C@H]2O)c2c1OCCCO2`, on h5-HT4b, the pIC50 is 8.78. In addition, the “% metabolised compound after 60 minutes” value in data set [1] was determined as 17%.
